In the assay the target is Nav1.8 ion channel stably expressed on HEK293 cells (Homo sapiens (Human), UniProt Q9Y5Y9). In words: Inhibitory activity against Nav1.8, manual patch clamp. The assay is classed as cell-based. Particulars: read-out: IC50 for the inhibition of Nav1.8 channel activity, resting protocol (-80 mV to 10 mV), 1 μM TTX.

Chains of the proteins cited; added tags and fusions are not shown.
UniProt Q9Y5Y9, whole entry: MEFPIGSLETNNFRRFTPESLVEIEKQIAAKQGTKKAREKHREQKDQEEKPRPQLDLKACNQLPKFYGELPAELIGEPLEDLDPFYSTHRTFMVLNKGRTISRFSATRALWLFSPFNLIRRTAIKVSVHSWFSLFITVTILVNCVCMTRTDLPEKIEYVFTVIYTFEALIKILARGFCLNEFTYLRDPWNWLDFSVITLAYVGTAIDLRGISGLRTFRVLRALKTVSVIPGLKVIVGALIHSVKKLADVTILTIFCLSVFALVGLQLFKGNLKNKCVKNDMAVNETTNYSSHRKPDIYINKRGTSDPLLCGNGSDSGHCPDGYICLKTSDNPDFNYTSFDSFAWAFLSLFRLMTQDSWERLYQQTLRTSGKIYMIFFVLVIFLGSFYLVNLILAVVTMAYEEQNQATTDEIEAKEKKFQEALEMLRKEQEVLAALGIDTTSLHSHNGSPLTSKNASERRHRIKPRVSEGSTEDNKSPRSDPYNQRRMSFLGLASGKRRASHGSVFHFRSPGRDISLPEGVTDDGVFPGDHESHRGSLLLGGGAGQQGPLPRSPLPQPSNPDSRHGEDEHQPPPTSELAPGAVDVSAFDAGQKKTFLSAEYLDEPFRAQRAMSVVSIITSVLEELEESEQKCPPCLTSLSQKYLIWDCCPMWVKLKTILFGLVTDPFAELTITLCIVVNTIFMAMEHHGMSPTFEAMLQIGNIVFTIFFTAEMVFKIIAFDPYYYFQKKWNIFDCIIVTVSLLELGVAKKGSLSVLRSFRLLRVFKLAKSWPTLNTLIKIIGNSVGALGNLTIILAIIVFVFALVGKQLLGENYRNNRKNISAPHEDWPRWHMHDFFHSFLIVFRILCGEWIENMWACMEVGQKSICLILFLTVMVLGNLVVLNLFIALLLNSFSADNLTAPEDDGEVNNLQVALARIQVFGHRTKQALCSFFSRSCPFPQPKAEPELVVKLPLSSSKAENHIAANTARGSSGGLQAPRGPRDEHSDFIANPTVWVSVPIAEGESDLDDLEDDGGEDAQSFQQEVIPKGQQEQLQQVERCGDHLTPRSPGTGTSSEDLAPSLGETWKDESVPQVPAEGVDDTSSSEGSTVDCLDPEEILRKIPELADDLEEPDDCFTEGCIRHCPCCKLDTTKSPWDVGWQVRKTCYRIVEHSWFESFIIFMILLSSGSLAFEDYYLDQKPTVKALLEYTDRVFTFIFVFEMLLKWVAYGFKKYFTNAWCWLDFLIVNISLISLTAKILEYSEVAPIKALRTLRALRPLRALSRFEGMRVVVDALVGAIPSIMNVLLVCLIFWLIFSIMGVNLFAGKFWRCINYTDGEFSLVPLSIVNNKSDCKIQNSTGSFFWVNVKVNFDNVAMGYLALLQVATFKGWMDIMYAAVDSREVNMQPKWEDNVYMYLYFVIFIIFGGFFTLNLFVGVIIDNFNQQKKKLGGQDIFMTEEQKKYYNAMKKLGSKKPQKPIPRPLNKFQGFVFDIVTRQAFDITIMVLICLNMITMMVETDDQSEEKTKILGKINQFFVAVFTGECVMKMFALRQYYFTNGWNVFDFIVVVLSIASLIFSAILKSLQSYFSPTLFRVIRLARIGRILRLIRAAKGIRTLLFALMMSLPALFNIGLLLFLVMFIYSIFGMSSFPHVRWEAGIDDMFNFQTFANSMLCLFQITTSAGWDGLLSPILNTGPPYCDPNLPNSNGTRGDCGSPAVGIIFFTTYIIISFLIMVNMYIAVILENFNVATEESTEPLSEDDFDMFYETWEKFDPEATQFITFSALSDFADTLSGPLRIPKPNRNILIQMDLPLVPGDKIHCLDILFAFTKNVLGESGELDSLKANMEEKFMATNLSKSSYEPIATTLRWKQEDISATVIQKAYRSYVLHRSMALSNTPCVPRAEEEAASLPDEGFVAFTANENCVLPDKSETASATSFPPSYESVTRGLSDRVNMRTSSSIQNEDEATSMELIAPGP

As for `COc1c([C@H]2[C@H](C(=O)Nc3ccnc(C(N)CO)c3)O[C@@](C)(C(F)(F)F)[C@H]2C)ccc(F)c1F` (single isomer, unassigned) [6-1 or 6-2 (synthesized from the compound with the shorter r], the 50% inhibitory concentration (IC50) turned out to be 2.23 nM.

As to `COc1c([C@H]2[C@H](C(=O)Nc3ccnc(C(N)CO)c3)O[C@@](C)(C(F)(F)F)[C@H]2C)ccc(F)c1F` (single isomer, unassigned) [6-1 or 6-2 (synthesized from the compound with the longer re], the IC50 stood at 0.85 nM.
